Results on five compounds are retold here after ChEMBL document CHEMBL1124519 (J Med Chem, 1989).

For one data set, the species on record is Homo sapiens. Put plainly: Half-life period obtained from linear regression of metabolite concentration in Human plasma containing 100 mM phosphate, at pH 7.4.
Data set [1] deals with L1210. The experiment in a line: The cytotoxicity (LC99) was evaluated in vitro against L1210 cells obtained from cultured mice.
Data set [2] in a line: Half-life period obtained from linear regression of metabolite concentration in aqueous buffer of pH 7.4 at 37 degrees Celsius in 100 mM phosphate buffer.
Data set [3] can be described thus: Half-life period obtained from linear regression of metabolite concentration in aqueous buffer of pH 7.4 at 37 degrees Celsius in 100 mM HEPES buffer.
Data set [4] concerns L1210. Put plainly: The cytotoxicity (LC99) was evaluated in vitro against L1210 cells obtained from cultured mice.

In the case of `NP(=O)(OCCC=O)N(CCCl)CCCl.O=P1(N(CCCl)CCCl)NC(O)CCO1` (centres undefined), the results for the T1/2 (in the data set filed under Homo sapiens; in data set [2]) were 14 min and 44 min, respectively. This compound also showed an LC99 in the data set with L1210 [1] of 12.1 µM.

For `CN1C(O)CCOP1(=O)N(CCCl)CCCl.CNP(=O)(OCCC=O)N(CCCl)CCCl` (centres undefined), the T1/2 is 37 min in the data set listed under Homo sapiens and above 200 min in data set [2].

For the compound `O=CCCOP(=O)(NCCCl)N(CCCl)CCCl.O=P1(N(CCCl)CCCl)OCCC(O)N1CCCl` (centres undefined), the values for the T1/2 (in the data set listed under Homo sapiens; in data set [2]) were 9 min and 40 min, respectively.

With `CNP(=O)(O)N(CCCl)CCCl`, the T1/2 in data set [3] came out at 12 min.

The compound `NP(=O)(O)N(CCCl)CCCl` had an LC99 with L1210 [4] of 169 µM.
